The source of these data is patent EP1845096A1, “12-Aza-epothilones, process for their preparation and their use as antiproliferative agents” (ETH Zürich, priority 2006, dated 2007).

The experiment concerns KB-8511. The experiment in a line: Human cancer cell growth inhibition, methylene blue staining, KB-8511 (multidrug-resistant). As to conditions: read-out: IC50 KB-8511; KB-8511: P-gp170 overexpressing multidrug-resistant subline of KB-31; cells exposed for 72 h.

Usually IC50 stands for the concentration needed to halve the response being measured. For `C/C(=C\c1csc(C)n1)[C@@H]1CCN(C(=O)OC(C)(C)C)CCC[C@H](C)[C@H](O)[C@@H](C)C(=O)C(C)(C)[C@@H](O)CC(=O)O1` [B, reference compound], the concentration for half-maximal inhibition (IC50) was 0.105 µM.
